Target: T1, pure CETP separated from human blood plasma (Homo sapiens, UniProt P11597)
T1 construct: Pure CETP was separated from human blood plasma in accordance with the method of Hesler et al; from tissue; host or cells: human blood plasma
T1 sequence (P11597 18-493): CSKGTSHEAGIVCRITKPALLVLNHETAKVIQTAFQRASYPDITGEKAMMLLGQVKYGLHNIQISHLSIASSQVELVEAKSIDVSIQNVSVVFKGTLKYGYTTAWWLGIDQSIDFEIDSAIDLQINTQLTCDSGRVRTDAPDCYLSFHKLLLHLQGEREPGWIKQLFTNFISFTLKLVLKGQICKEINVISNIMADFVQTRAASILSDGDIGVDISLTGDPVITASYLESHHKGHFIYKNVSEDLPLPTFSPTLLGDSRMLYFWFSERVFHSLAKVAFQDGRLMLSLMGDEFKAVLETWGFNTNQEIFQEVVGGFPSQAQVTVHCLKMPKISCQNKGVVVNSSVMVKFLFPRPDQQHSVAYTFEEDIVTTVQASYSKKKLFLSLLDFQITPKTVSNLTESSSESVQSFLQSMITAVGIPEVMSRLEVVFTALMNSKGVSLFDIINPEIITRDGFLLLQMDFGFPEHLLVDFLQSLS
Test: Determination of CETP inhibitory activity (CE transfer from [3H]-HDL to LDL), pure CETP as CETP source
Format: biochemical
Conditions: control experiment
Experimental: LDL and [^3 H]-cholesteryl oleate-labelled HDL were synthesized in accordance with the method of Morton et al.(see, J. Biol. Chem., 256, 11992-11995(1981)) and then separated using an ultracentrifuge(Beckman XL 70). LDL and [^3 H]-HDL, thus prepared, were used as a CE-receptor and a CE-donor, respectively.
Pure CETP was separated from human blood plasma in accordance with the method of Hesler et al.(see, J. Biol. Chem., 262, 2275-2282(1987)) and used as a CETP source.
0.3 ml of LDL, 0.05 ml of [^3 H]-HDL and 0.05 ml of the CETP source, which were prepared above, and 0.05 ml of a CETP inhibitor were added into a 1.5 ml tube and reacted at 37° C. for 3 hours.
When the reaction was finished, LDL was precipitated in accordance with the method of Morton et al.(see, Biochim. Biophys. Acta, 663, 350-355(1981)). The amount of the isotope transferred to LDL was determined with a liquid scintillation counter(Packard Tricarb 1600 TR) using a part of the supernatant, and the activity of CETP was calculated therefrom.
The inhibitory activity of the CETP inhibitor was calculated from the CETP activities of the experimental group, in which the CETP inhibitor was added, and that of control group, in which no CETP inhibitor was added, as follows: [formula]

human albumin [reference compound]
CETP inhibitory activity (FIG. 4, curve C): hardly exhibits CETP inhibitory activity

— patent US5880095A, “Cholesteryl ester transfer protein inhibitor peptides and prophylactic and therapeutic anti-arteriosclerosis agents” (LG Chemical Ltd., priority 1994, dated 1999)
